Reference: patent publication US20250059233A1, “USE OF THERAPEUTIC PEPTIDES” (Viage Therapeutics Inc., priority 2021, published 2025)

System: AVPR1A, AVPR1B, AVPR2
Experiment: Tail suspension test (TST) with vasopressin receptor inhibitors
Assay type: in vivo
Conditions: inhibitor given with the peptide

Structure (SMILES): COc1ccc(S(=O)(=O)N2C(=O)[C@@](c3ccccc3OC)(N3C[C@H](O)C[C@H]3C(=O)N(C)C)c3cc(Cl)ccc32)c(OC)c1 [nelivaptan]
- blocking of […] activity in a tail suspension test: blocks
